Reference: patent US12240855B2, “Pyrrolopyrazole derivative” (DAIICHI SANKYO COMPANY, LIMITED, priority 2019, dated 2025)

Key:
[1] = test system: PTDSS2 gene-disrupted (PTDSS2-KO) HCT116 cells; assay: cells; details: Homo sapiens, HCT-116, 72 h, read-out: Test Example 3 PTDSS2-KO HCT116 GI50
[2] = test system: HCT116 cells; assay: cells; details: Homo sapiens, HCT-116, 72 h, read-out: Test Example 3 HCT116 GI50

| Compound | GI50 [1] [nM] | GI50 [2] [nM] |
| --- | --- | --- |
| CC(F)(F)CN1C(=O)c2[nH]nc(-c3cccc4[nH]c(=O)oc34)c2C1c1ccc(Oc2ccc3c(c2)OC(F)(F)C(F)(F)O3)cc1 (single isomer, unassigned) [Example 39, 7-[5-(2,2-Difluoropropyl)-6-oxo-4-{4-[(2,2,3,3-tetrafluoro-2,3-dihydro-1,4-benzodioxin-6-yl)oxy]phenyl}-1,4,5,6-tetrahydropyrrolo[3,4-c]pyrazol-3-yl]-1,3-benzoxazol-2(3H)-one (enantiomer)] | 14 | 8300 |
| CC(F)(F)CN1C(=O)c2[nH]nc(-c3cccc4[nH]c(=O)oc34)c2C1c1ccc(Oc2cccc(Cl)c2OC(F)(F)F)cc1 (single isomer, unassigned) [Example 40, 7-[4-{4-[3-Chloro-2-(trifluoromethoxy)phenoxy]phenyl}-5-(2,2-difluoropropyl)-6-oxo-1,4,5,6-tetrahydropyrrolo[3,4-c]pyrazol-3-yl]-1,3-benzoxazol-2(3H)-one (enantiomer)] | 20 | 3300 |
| CC(F)(F)CN1C(=O)c2[nH]nc(-c3cc(F)cc4[nH]c(=O)oc34)c2C1c1ccc(Oc2ccc(Cl)cc2)cc1 (single isomer, unassigned) [Example 41, 7-{4-[4-(4-Chlorophenoxy)phenyl]-5-(2,2-difluoropropyl)-6-oxo-1,4,5,6-tetrahydropyrrolo[3,4-c]pyrazol-3-yl}-5-fluoro-1,3-benzoxazol-2(3H)-one (enantiomer)] | 200 | 17000 |
| Cc1cc(OC(F)(F)F)ccc1Oc1ccc(C2c3c(-c4cccc5[nH]c(=O)oc45)n[nH]c3C(=O)N2CC(C)(F)F)cc1 (single isomer, unassigned) [Example 43, 7-[5-(2,2-Difluoropropyl)-4-{4-[2-methyl-4-(trifluoromethoxy)phenoxy]phenyl}-6-oxo-1,4,5,6-tetrahydropyrrolo[3,4-c]pyrazol-3-yl]-1,3-benzoxazol-2(3H)-one (enantiomer)] | 49 | 7900 |
| CC(F)(F)CN1C(=O)c2[nH]nc(-c3cccc4[nH]c(=O)oc34)c2C1c1ccc(Sc2ccc(OC(F)(F)F)cc2)cc1 (single isomer, unassigned) [Example 44, 7-[5-(2,2-Difluoropropyl)-6-oxo-4-(4-{[4-(trifluoromethoxy)phenyl]sulfanyl}phenyl)-1,4,5,6-tetrahydropyrrolo[3,4-c]pyrazol-3-yl]-1,3-benzoxazol-2(3H)-one (enantiomer)] | 19 | 3900 |
| Cc1cc(Oc2ccc(C3c4c(-c5cccc6[nH]c(=O)oc56)n[nH]c4C(=O)N3CC(C)(F)F)cc2)cc(C(F)(F)F)c1 (single isomer, unassigned) [Example 45, 7-[5-(2,2-Difluoropropyl)-4-{4-[3-methyl-5-(trifluoromethyl)phenoxy]phenyl}-6-oxo-1,4,5,6-tetrahydropyrrolo[3,4-c]pyrazol-3-yl]-1,3-benzoxazol-2(3H)-one (enantiomer)] | 16 | 8400 |
| CC(F)(F)CN1C(=O)c2[nH]nc(-c3cccc4[nH]c(=O)oc34)c2C1c1ccc(Oc2ccc(C(F)(F)F)cc2)cc1 (single isomer, unassigned) [Example 46, 7-[5-(2,2-Difluoropropyl)-6-oxo-4-{4-[4-(trifluoromethyl)phenoxy]phenyl}-1,4,5,6-tetrahydropyrrolo[3,4-c]pyrazol-3-yl]-1,3-benzoxazol-2(3H)-one (enantiomer)] | 40 | 8000 |
| CC(F)(F)CN1C(=O)c2[nH]nc(-c3cccc4[nH]c(=O)oc34)c2C1c1ccc(Oc2ccc(SC(F)(F)F)cc2)cc1 (single isomer, unassigned) [Example 47, 7-[5(2,2-Difluoropropyl)-6-oxo-4-(4-{4-[(trifluoromethyl)sulfanyl]phenoxy}phenyl)-1,4,5,6-tetrahydropyrrolo[3,4-c]pyrazol-3-yl]-1,3-benzoxazol-2(3H)-one (enantiomer)] | 40 | 7500 |
| CC(F)(F)CN1C(=O)c2[nH]nc(-c3cccc4[nH]c(=O)oc34)c2C1c1ccc(Oc2cc(Cl)c(OC(F)(F)F)c(Cl)c2)cc1 (single isomer, unassigned) [Example 48, 7-[4-{4-[3,5-Dichloro-4-(trifluoromethoxy)phenoxy]phenyl}-5-(2,2-difluoropropyl)-6-oxo-1,4,5,6-tetrahydropyrrolo[3,4-c]pyrazol-3-yl]-1,3-benzoxazol-2(3H)-one (enantiomer)] | 17 | 7800 |
| CC(F)(F)CN1C(=O)c2[nH]nc(-c3cccc4[nH]c(=O)oc34)c2C1c1ccc(Oc2cc(Cl)cc(C(F)(F)F)c2)cc1 (single isomer, unassigned) [Example 49, 7-[4-{4-[3-Chloro-5-(trifluoromethyl)phenoxy]phenyl}-5-(2,2-difluoropropyl)-6-oxo-1,4,5,6-tetrahydropyrrolo[3,4-c]pyrazol-3-yl]-1,3-benzoxazol-2(3H)-one (enantiomer)] | 16 | 7800 |
| CC(F)(F)CN1C(=O)c2[nH]nc(-c3cccc4[nH]c(=O)oc34)c2C1c1ccc(Oc2ccc(C(F)(F)F)c(C(F)(F)F)c2)cc1 (single isomer, unassigned) [Example 50, 7-[4-{4-[3,4-Bis(trifluoromethyl)phenoxy]phenyl}-5-(2,2-difluoropropyl)-6-oxo-1,4,5,6-tetrahydropyrrolo[3,4-c]pyrazol-3-yl]-1,3-benzoxazol-2(3H)-one (enantiomer)] | 18 | 6500 |
| CC(F)(F)CN1C(=O)c2[nH]nc(-c3cccc4[nH]c(=O)oc34)c2C1c1ccc(Oc2ccc(S(=O)(=O)C(F)(F)F)cc2)cc1 (single isomer, unassigned) [Example 51, 7-[5-(2,2-Difluoropropyl)-6-oxo-4-{4[4-(trifluoromethanesulfonyl)phenoxy]phenyl}-1,4,5,6-tetrahydropyrrolo[3,4-c]pyrazol-3-yl]-1,3-benzoxazol-2(3H)-one (enantiomer)] | 140 | 5400 |
| CC(F)(F)CN1C(=O)c2[nH]nc(-c3cccc4[nH]c(=O)oc34)c2C1c1ccc(Oc2ccc(OC(F)(F)F)cc2Cl)cc1 (single isomer, unassigned) [Example 52, 7-[4-{4-[2-Chloro-4-(trifluoromethoxy)phenoxy]phenyl}-5-(2,2-difluoropropyl)-6-oxo-1,4,5,6-tetrahydropyrrolo[3,4-c]pyrazol-3-yl]-1,3-benzoxazol-2(3H)-one (enantiomer)] | 63 | 5900 |
| CC(F)(F)CN1C(=O)c2[nH]nc(-c3cccc4[nH]c(=O)oc34)c2C1c1cc(Oc2ccc(F)cc2)cc(C(F)(F)F)c1 (single isomer, unassigned) [Example 54, 7-{5-(2,2-Difluoropropyl)-4-[3-(4-fluorophenoxy)-5-(trifluoromethyl)phenyl]-6-oxo-1,4,5,6-tetrahydropyrrolo[3,4-c]pyrazol-3-yl}-1,3-benzoxazol-2(3H)-one (enantiomer)] | 14 | 11000 |
| CC(F)(F)CN1C(=O)c2[nH]nc(-c3cccc4[nH]c(=O)oc34)c2C1c1cccc(Oc2ccc(OC(F)(F)F)cc2)c1 (single isomer, unassigned) [Example 55, 7-[5-(2,2-Difluoropropyl)-6-oxo-4-{3-[4-(trifluoromethoxy)phenoxy]phenyl}-1,4,5,6-tetrahydropyrrolo[3,4-c]pyrazol-3-yl]-1,3-benzoxazol-2(3H)-one (enantiomer)] | 27 | 8900 |
